Compound activity (PubChem BioAssay)
This is a sample that favours compounds with a hit; in the whole collection about 1.8% have one here.
MLL AF4-AF9 inh = inhibitors of AF4 peptide binding to AF9, primary screen, biochemical, AlphaScreen, biotin-AF4 peptide, FLAG-AF9, single point; AID 651704, 2012; inhibition, % at 10 µM; 350,000 compounds, 0.47% hits;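 active means every replicate reaching a set inhibition limit, whatever the replicate mean, cut at about 25% in these data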
RAD52 anneal inh = RAD52 DNA annealing inhibitors, primary screen, biochemical, FRET, single point, set 2; recombinant RAD52 DNA annealing, FRET fluorescence; DNA repair protein RAD52 homolog (Homo sapiens), P43351; 360,000 compounds, 0.46% hits; inhibition, % at 18.7 µM; AID 651710, 2012;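 active means every replicate showing at least 50% inhibition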
SIRT5 block = SIRT5 desuccinylase inhibitors, primary screen, biochemical, fluorescence imaging, single point, set 5; NAD-dependent protein deacylase sirtuin-5, mitochondrial (Homo sapiens), Q9NXA8; Purified SirT5, succinyl-peptide AMC, trypsin-coupled fluorescence; inhibition, % at 15 µM; 330,000 compounds, 1.1% hits; in the data active means inhibition above about 15%
UUG fidelity = yeast start codon fidelity modulation; AID 602363; activity score, % at 18.7 µM; S. cerevisiae UUG-firefly luciferase reporter, luminescence/redox ratio; 0.13% of 350,000 active;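 active means replicate mean at a twofold rise or more, about +100% in these data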;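 further: firefly luciferase made from a UUG start codon reports start codon fidelity; reporter light over untreated wells divided by growth signal over untreated wells; some hits fall short of that in this replicate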
RAD54 branch = inhibitors of human RAD54 branch migration, primary screen, biochemical, fluorescence, single point; AID 602329, 2012; 360,000 compounds, 0.14% hits; RAD54 Holliday junction branch migration, FAM/BHQ fluorescence; inhibition, % at 10.4 µM;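 active means mean normalized replicate activity at least 40 and at least half of replicates scoring 40 or more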;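 further: inhibitors cause a drop in the FAM fluorescence signal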
E-sel inducer = E-selectin induction in HUVECs, primary screen, imaging, HUVEC, immunofluorescence imaging, single point | normalized: neutral wells 0, TNF-alpha wells 100 | activation, % at 7.58 µM | 260,000 compounds, 0.37% hits | AID 686992, 2013;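 active means mean E-selectin-positive cell signal at least 10% of the positive control, reached in at least 60% of replicates, without over 20% cell loss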
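Test system: HUVEC; input: 3,000 HUVEC/well; measured by: immunofluorescence imaging; read-out: % PE-positive cells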
Large screens that a line does not name were inactive.

C[C@H]1CN([C@@H](C)CO)C(=O)Cc2cc(NC(=O)CCN3CCOCC3)ccc2O[C@@H]1CN(C)CC1CC1	none
COC(=O)C1=CN(Cc2ccc(OC)c(OC)c2)C=C(C(=O)OC)C1c1ccc(O)cc1	none (no result: E-sel inducer)
COC(=O)C1=CN(Cc2ccc(OC)c(OC)c2)C=C(C(=O)OC)C1c1ccc(F)cc1	SIRT5 block 17.7 (no result: E-sel inducer)
COc1ccc(NC(=O)N(C)C[C@@H]2OCCCC[C@@H](C)Oc3ccc(NC(=O)Nc4ccc5c(c4)OCO5)cc3C(=O)N([C@H](C)CO)C[C@H]2C)cc1	SIRT5 block 15.2
COc1ccc(NC(=O)Nc2ccc3c(c2)C(=O)N([C@H](C)CO)C[C@H](C)[C@H](CN(C)C(=O)Nc2ccc(C(F)(F)F)cc2)OCCCC[C@H](C)O3)cc1	none
COc1ccc(NC(=O)N(C)C[C@@H]2OCCCC[C@@H](C)Oc3ccc(NC(=O)Nc4ccc(C(F)(F)F)cc4)cc3C(=O)N([C@@H](C)CO)C[C@@H]2C)cc1	SIRT5 block 15.7 (no result: UUG fidelity, RAD54 branch)
COc1ccc(NC(=O)N(C)C[C@@H]2OCCCC[C@@H](C)Oc3ccc(NC(=O)Nc4ccc(F)cc4)cc3C(=O)N([C@H](C)CO)C[C@@H]2C)cc1	SIRT5 block 17.8
COc1ccc(NC(=O)N(C)C[C@H]2OCCCC[C@@H](C)Oc3ccc(NC(=O)Nc4ccc(F)cc4)cc3C(=O)N([C@H](C)CO)C[C@H]2C)cc1	none
COc1ccccc1NC(=O)N[C@@H]1CC[C@@H](CC(=O)NCc2ccc(Cl)c(Cl)c2)O[C@@H]1CO	none (no result: UUG fidelity)
CSc1ccc(C=NNc2ccc(S(=O)(=O)Nc3ccccc3C(=O)O)cc2[N+](=O)[O-])cc1	none
O=C(O)c1ccccc1NS(=O)(=O)c1ccc(NN=Cc2ccccc2F)c([N+](=O)[O-])c1	SIRT5 block 17.3
COc1ccc(C=NNc2ccc(S(=O)(=O)Nc3ccccc3C(=O)O)cc2[N+](=O)[O-])c(OC)c1	SIRT5 block 44.5 (no result: MLL AF4-AF9 inh, E-sel inducer)
CCOc1cccc(C=NNc2ccc(S(=O)(=O)Nc3ccccc3C(=O)O)cc2[N+](=O)[O-])c1O	none
CCOc1ccc(C=NNc2ccc(S(=O)(=O)Nc3ccccc3C(=O)O)cc2[N+](=O)[O-])cc1	SIRT5 block 20.2 (no result: E-sel inducer)
C=CCOc1ccc(C=NNc2ccc(S(=O)(=O)Nc3ccccc3C(=O)O)cc2[N+](=O)[O-])cc1OC	none
COc1ccc(NC(=S)NNc2ccc(S(=O)(=O)Nc3ccccc3C(=O)O)cc2[N+](=O)[O-])cc1	SIRT5 block 16.8 (no result: UUG fidelity, RAD54 branch, E-sel inducer)
CCCNC(=O)[C@H]1[C@H](CO)[C@H]2Cn3c(cccc3=O)[C@H]2N1CCC(F)(F)F	none (no result: UUG fidelity)
CO[C@H]1CN(C)C(=O)c2cc(NC(=O)C3CCC3)ccc2OC[C@H](C)N(Cc2cccnc2)C[C@H]1C	none
Cc1ccccc1NC(=O)C(NC1CCCCC1)C(C)C (stereo unspecified)	SIRT5 block 35.9 (no result: UUG fidelity, RAD54 branch, E-sel inducer)
C[C@@H](O)C#Cc1ccc([C@@H]2[C@H](CO)N3CCCCN(S(=O)(=O)Cc4ccccc4)C[C@@H]23)cc1	none
O=C1ON=C(c2ccccc2)/C1=C/c1ccco1	SIRT5 block 19.6 (no result: E-sel inducer)
CN(C)/C=C1\C(=O)ON=C1c1ccccc1	none (no result: UUG fidelity, RAD54 branch, E-sel inducer)
CNC(=O)C[C@@H]1CC[C@@H]2[C@H](COc3ccc(NC(=O)c4cnccn4)cc3C(=O)N2C)O1	none (no result: MLL AF4-AF9 inh, RAD52 anneal inh, SIRT5 block)
CS(=O)(=O)N(CC(=O)N1CCCCC1)Cc1ccccc1	SIRT5 block 17.4 (no result: E-sel inducer)
CN1CCN(C(=O)CN(Cc2ccccc2)S(C)(=O)=O)CC1	none (no result: MLL AF4-AF9 inh, RAD52 anneal inh, SIRT5 block, E-sel inducer)
CS(=O)(=O)N(CC(=O)N1CCCC1)c1cccc(F)c1	SIRT5 block 101.4 (no result: E-sel inducer)
O=C(C[C@@H]1C[C@H]2c3cc(NS(=O)(=O)c4ccc(F)cc4)ccc3O[C@H]2[C@@H](CO)O1)NCc1ccncc1	none
CC(C)(C)C(=O)CSc1nc2ncc(Br)cc2[nH]1	none (no result: MLL AF4-AF9 inh, RAD52 anneal inh, SIRT5 block, E-sel inducer)
Cc1cc(C)c(NC(=O)CSc2nc3ncc(Br)cc3[nH]2)c(C)c1	SIRT5 block 18.7
